These are literature values, as cited in US20130333059A1, “HOX COMPOSITIONS AND METHODS” (THE JOHNS HOPKINS UNIVERSITY, priority 2006, published 2013).

The conditions of the data set: cited from earlier work.

Regarding `COc1cc2ncnc(Nc3ccc(F)c(Cl)c3)c2cc1OCCCN1CCOCC1` [gefitinib], the “response to Iressa, ER-negative breast cancer patient with high levels of EGFR expression” value (preliminary data from two independent clinical trials) was “poor response”. Further, under “two thirds of ER-positive patients, two independent clinical trials”, the “response to Iressa, ER-positive patients with a low to medium level expression of EGFR” value is “good response”.
